This test concerns HeLa. Put plainly: Antiproliferative activity against human HeLa cells at 0.5 nM after 132 mins by fluorescence live-cell imaging assay. Type of test: functional, cell-based.

Calls of active or inactive are those of the source. The calls are words filed in the database; no cut-off is given here.

Take `CC(=O)O[C@H]1C(=O)[C@@]2(C)[C@H]([C@H](OC(=O)c3ccccc3)[C@]3(O)C[C@H](OC(=O)[C@H](O)[C@@H](NC(=O)c4ccccc4)c4ccccc4)C(C)=C1C3(C)C)[C@]1(OC(C)=O)CO[C@@H]1C[C@@H]2O`: the outcome was inactive.
